This passage reports pEC50 results from ChEMBL document CHEMBL3585322, “Synthesis, enantiomeric separation and docking studies of spiropiperidine analogues as ligands of the nociceptin/orphanin FQ receptor” (2014).

Sequences of proteins named here, by UniProt entry; tags and fusion partners are left off.
UniProt P41146, whole entry: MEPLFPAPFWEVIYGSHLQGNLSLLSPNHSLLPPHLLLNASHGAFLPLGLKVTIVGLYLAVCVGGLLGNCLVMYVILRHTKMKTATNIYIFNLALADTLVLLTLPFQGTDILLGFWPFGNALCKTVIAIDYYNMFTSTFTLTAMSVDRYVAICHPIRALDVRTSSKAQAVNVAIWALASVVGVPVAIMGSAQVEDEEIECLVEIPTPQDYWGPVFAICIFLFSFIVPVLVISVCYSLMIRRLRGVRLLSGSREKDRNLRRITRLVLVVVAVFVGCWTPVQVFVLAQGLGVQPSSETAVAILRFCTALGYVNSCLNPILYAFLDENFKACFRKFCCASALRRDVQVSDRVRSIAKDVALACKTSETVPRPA

For orientation: pEC50 means the EC50 on a negative log10 scale, so that one unit is a factor of ten.

This test concerns the target Nociceptin receptor (Homo sapiens, UniProt P41146). The test can be described thus: Agonist activity at human recombinant NOP receptor expressed in CHO cells co-expressing C-terminally modifed Gaqi5 protein by Fluo-4AM dye based calcium mobilization assay.

`O=C(O)C(=O)O.O=C1NCN(c2ccccc2)C12CCN(CC1COc3ccccc3O1)CC2` (stereo unspecified): the pEC50 stood at 6.49.
